In US10118927B2, “Substituted piperidin-4-amino-type compounds and uses thereof” (dated 2018):

molecular target: human opioid receptor-like receptor (ORL-1) (Homo sapiens, UniProt P41146); test: In vitro ORL-1 receptor binding assay ([3H]-nociceptin displacement); settings: read-out: Ki [Average ± Std Deviation] ORL-1; membranes from recombinant HEK-293 cells; 0.1 nM [3H]-nociceptin

Row | SMILES | Ki
1 | O=C(O)c1ccccc1N[C@H]1C[C@H]2CCC[C@@H](C1)N2C12CC3CC(CC(C3)C1)C2 | > 20000 nM
2 | O=C(O)[C@@H]1CCCN1C(=O)CN(c1ccccc1)[C@H]1C[C@H]2CCC[C@@H](C1)N2[C@H]1C[C@@H]2CCC[C@@H](C2)C1 | 280 nM
3 | O=C(O)c1ccccc1N[C@H]1C[C@H]2CCC[C@@H](C1)N2[C@H]1C[C@@H]2CCC[C@@H](C2)C1 | 439 nM
